The assay deals with wild-type un-phosphorylated FGFR3 protein (Homo sapiens, UniProt P22607). In words: FGFR Enzymatic Assay (FRET peptide phosphorylation). The following applies: read-out: FGFR3 IC50, pre-incubated for 4 hours, tested form: TFA.

Chains of the proteins cited; added tags and fusions are not shown. Residues count along the entry.
UniProt P22607, 23-806 limits assumed: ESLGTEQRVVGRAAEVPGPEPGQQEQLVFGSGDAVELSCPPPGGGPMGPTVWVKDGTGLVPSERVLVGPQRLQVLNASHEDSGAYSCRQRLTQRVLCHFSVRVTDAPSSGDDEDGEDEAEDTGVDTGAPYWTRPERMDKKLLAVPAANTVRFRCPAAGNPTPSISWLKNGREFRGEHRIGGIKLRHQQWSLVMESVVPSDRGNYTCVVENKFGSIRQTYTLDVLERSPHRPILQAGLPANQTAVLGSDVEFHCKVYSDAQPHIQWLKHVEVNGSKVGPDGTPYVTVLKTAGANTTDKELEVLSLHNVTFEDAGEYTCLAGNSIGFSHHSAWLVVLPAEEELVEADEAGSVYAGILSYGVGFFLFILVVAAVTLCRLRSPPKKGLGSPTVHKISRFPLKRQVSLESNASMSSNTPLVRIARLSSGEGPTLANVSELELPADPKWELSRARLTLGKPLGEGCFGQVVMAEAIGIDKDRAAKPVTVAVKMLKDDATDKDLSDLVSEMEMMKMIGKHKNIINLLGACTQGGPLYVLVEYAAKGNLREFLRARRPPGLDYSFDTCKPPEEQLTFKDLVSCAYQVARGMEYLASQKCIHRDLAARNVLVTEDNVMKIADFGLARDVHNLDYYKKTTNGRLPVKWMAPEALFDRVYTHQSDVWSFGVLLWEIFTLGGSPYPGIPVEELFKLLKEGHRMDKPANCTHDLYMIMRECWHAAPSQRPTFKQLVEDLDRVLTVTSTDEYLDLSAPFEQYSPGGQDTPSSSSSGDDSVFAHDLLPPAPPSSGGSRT

For the compound `Cn1cnc(-c2cnc3ccn4c(C(N)=O)c(-c5c(Cl)cccc5Cl)nc4c3c2)c1`, the IC50 lay in the range of 1 to 10 nM.

The values above are taken from US11939331B2, “Tricyclic heterocycles as FGFR inhibitors” (Incyte Corporation, priority 2021, dated 2024).
